Results taken from PubChem BioAssay AID1987 (The Scripps Research Institute Molecular Screening Center, 2009).
The entries are a selection whose mix differs from that of the whole data set. Active and inactive are the calls of the source.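 The calls were made as follows: active = inhibition above the campaign's mean inhibition across all tested compounds plus 3 SD (cut at about 9.5% in these data); inactive = the rest.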

Protein sequences, listed by entry. Tags and fused reporters are not part of them.
UniProt P53041, whole entry: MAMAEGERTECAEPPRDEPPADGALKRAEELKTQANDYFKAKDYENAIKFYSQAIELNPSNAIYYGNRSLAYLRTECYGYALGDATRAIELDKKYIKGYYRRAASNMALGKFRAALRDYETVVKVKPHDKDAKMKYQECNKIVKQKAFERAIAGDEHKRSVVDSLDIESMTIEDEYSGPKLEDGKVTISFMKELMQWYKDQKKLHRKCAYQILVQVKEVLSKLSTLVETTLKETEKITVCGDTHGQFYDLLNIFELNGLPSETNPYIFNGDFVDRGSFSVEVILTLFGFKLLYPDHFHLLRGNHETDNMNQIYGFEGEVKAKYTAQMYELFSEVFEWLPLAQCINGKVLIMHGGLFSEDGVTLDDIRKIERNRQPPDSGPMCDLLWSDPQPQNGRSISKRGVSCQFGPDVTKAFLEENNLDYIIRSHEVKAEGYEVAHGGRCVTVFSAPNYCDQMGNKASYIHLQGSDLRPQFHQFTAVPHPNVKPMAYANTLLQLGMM

Each compound was assayed against Serine/threonine-protein phosphatase 5 (Homo sapiens) (UniProt P53041) (assay: inhibition of human PP5 catalytic activity – biochemical, fluorescence, primary screen (AID 1987;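 also: 0% = DMSO only and 100% = 100 µM cantharidin control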)). Conditions: purified PP5c, OMFP substrate fluorescence; at 6.7 µM; hits give high values.

Question: For `COP1(=S)c2c(C)nn(CCC#N)c2N=C(c2ccc(F)cc2)N1C` (configuration not stated), which inhibition is on record?
Answer: inactive: 3.28%

Question: How did the inhibition turn out when `CCN(N=Nc1nonc1N)c1nonc1N` was run?
Answer: inactive: 1.74%
